Literature values in PMC8896928, “Preparation, Characterization, and Preliminary Imaging Study of [^188Re]Re-Ibandronate as a Novel Theranostic Radiopharmaceutical for Bone Metastasis” (Contrast Media & Molecular Imaging, 2022).

Legend:
[1] = human serum, 24 h; cited from earlier work
[2] = Swiss mice, cited from earlier work

| Substance | Stability (RCP) [1] | Bone uptake (maximum) ([2]; 1 h) | Bone uptake (lowest value) ([2]; 24 h) |
| --- | --- | --- | --- |
| [^188Re]Re-risedronate | 73 ± 1.21% |  |  |
| [^188Re]Re-zoledronate [[^188Re]Re-ZNA] | 91.53 ± 1.39% | 1.08 ± 0.14 %ID/g | 0.36 ± 0.06 %ID/g |
